Our source for the IC50 values is patent publication US20260364057A1, “AMIDE COMPOUND, AND COMPOSITION AND USE THEREOF” (SIMCERE ZAIMING PHARMACEUTICAL CO., LTD., priority 2022, published 2026).

Amino acid sequences for entries named in this document (tags omitted). Residues count along the entry.
UniProt Q8NI77, 1-376 limits assumed: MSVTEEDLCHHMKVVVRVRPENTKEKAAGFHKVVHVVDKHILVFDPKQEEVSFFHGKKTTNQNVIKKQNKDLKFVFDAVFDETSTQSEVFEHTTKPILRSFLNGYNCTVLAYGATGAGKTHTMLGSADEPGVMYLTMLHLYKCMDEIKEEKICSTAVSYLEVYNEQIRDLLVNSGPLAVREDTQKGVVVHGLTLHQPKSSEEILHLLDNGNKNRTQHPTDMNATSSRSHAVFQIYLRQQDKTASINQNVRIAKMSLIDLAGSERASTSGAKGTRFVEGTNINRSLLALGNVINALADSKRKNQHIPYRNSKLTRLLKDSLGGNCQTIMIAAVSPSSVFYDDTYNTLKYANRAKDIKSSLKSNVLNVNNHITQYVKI

Where only a bound is given, the exact number is not on record here.

The target in this test is Human KIF18A (1-376aa) (Homo sapiens, UniProt Q8NI77). The test can be described thus: KIF18A enzyme activity assay (ADP-Glo). It counts as biochemical. The note with it: read-out: KIF18A inhibitory activity IC50, microtubule 50 μg/mL, ATP (Km 70 μM), room temperature, 15 min. A general note: ADP-Glo turns the ADP formed in a reaction into a luminescent signal.

Take `O=C(Nc1cc(F)cc2c1nc1n2CCCC1)c1ccc(NS(=O)(=O)CCO)cc1N1CCC2(CC1)CC2`: the IC50 was under 200 nM.
In the case of `O=C(Nc1cccc2c1nc1n2CC2CC1C2)c1ccc(NS(=O)(=O)CCO)cc1N1CCC2(CC1)CC2` it was under 200 nM.
